Measurements from US20090099157A1, “TETRAHYDRO-PYRAZOLO-PYRIDINE THIOETHER MODULATORS OF CATHEPSIN S” (priority 2007, published 2009).

Amino acid sequences for entries named in this document (tags omitted). Residues count along the entry.
UniProt P25774, 115-331: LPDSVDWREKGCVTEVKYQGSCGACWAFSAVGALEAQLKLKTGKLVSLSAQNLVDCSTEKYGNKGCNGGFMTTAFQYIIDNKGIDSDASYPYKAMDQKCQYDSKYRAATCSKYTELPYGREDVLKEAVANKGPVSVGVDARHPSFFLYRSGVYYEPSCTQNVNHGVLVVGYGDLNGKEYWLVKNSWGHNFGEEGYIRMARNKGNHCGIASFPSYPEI

Biological target: Recombinant human cathepsin S (CatS) (Homo sapiens, UniProt P25774)
Assay: biochemical

Structure (SMILES) | IC50 [nM]
CS(=O)(=O)N1CCc2c(c(-c3ccc(C(F)(F)F)c(SCCN4CCCCC4)c3)nn2CC(O)CN2CCC(O)(c3ccccn3)CC2)C1 (stereo not drawn) [Example 708, 1-{2-Hydroxy-3-[5-(methylsulfonyl)-3-{3-[(2-piperidin-1-ylethyl)sulfanyl]-4-(trifluoromethyl)phenyl}-4,5,6,7-tetrahydro-1H-pyrazolo[4,3-c]pyridin-1-yl]propyl}-4-pyridin-2-ylpiperidin-4-ol] | 55
CS(=O)(=O)N1CCc2c(c(-c3ccc(C(F)(F)F)c(SCc4ccc(Cl)cc4)c3)nn2CCCN2CCC(N3CCCC3=O)CC2)C1 [Example 134, 1-[1-(3-{3-[3-(4-Chloro-benzylsulfanyl)-4-trifluoromethyl-phenyl]-5-methanesulfonyl-4,5,6,7-tetrahydro-pyrazolo[4,3-c]pyridin-1-yl}-propyl)-piperidin-4-yl]-pyrrolidin-2-one] | 130
OC(CN1CCC(c2ccccn2)CC1)Cn1nc(-c2ccc(C(F)(F)F)c(SCCN3CCC(F)(F)C3)c2)c2c1CCNC2 (stereo not drawn) [Example 418, 1-{3-[3-{[2-(3,3-Difluoropyrrolidin-1-yl)ethyl]sulfanyl}-4-(trifluoromethyl)phenyl]-4,5,6,7-tetrahydro-1H-pyrazolo[4,3-c]pyridin-1-yl}-3-(4-pyridin-2-ylpiperidin-1-yl)propan-2-ol] | 120
CS(=O)(=O)N1CCc2c(c(-c3ccc(C(F)(F)F)c(SCCN4CCOCC4)c3)nn2CC(O)CN2CCC3CCCCC3C2)C1 (stereo not drawn) [Example 595, 1-[5-(Methylsulfonyl)-3-{3-[(2-morpholin-4-ylethyl)sulfanyl]-4-(trifluoromethyl)phenyl}-4,5,6,7-tetrahydro-1H-pyrazolo[4,3-c]pyridin-1-yl]-3-(octahydroisoquinolin-2(1H)-yl)propan-2-ol] | 410
CS(=O)(=O)N1CCc2c(c(-c3ccc(C(F)(F)F)c(SCCN4CCOCC4)c3)nn2CC(O)CN2CCC(O)(c3ccccc3)CC2)C1 (stereo not drawn) [Example 722, 1-{2-Hydroxy-3-[5-(methylsulfonyl)-3-{3-[(2-morpholin-4-ylethyl)sulfanyl]-4-(trifluoromethyl)phenyl}-4,5,6,7-tetrahydro-1H-pyrazolo[4,3-c]pyridin-1-yl]propyl}-4-phenylpiperidin-4-ol] | 150
CS(=O)(=O)N1CCc2c(c(-c3ccc(C(F)(F)F)c(SCCN4CCCC(CO)C4)c3)nn2CC(O)CN2CCN(c3ccccc3)CC2)C1 (stereo not drawn) [Example 773, 1-{3-[3-({2-[3-(Hydroxymethyl)piperidin-1-yl]ethyl}sulfanyl)-4-(trifluoromethyl)phenyl]-5-(methylsulfonyl)-4,5,6,7-tetrahydro-1H-pyrazolo[4,3-c]pyridin-1-yl}-3-(4-phenylpiperazin-1-yl)propan-2-ol] | 65

More lines, in order of falling IC50, values ahead:

IC50 [nM] | Structure (SMILES)
1250 | O=C(C1CCN(CC(O)Cn2nc(-c3ccc(C(F)(F)F)c(SCCN4CCC(F)(F)C4)c3)c3c2CCNC3)CC1)N1CCCC1 (stereo not drawn) [Example 532, 1-{3-[3-{[2-(3,3-Difluoropyrrolidin-1-yl)ethyl]sulfanyl}-4-(trifluoromethyl)phenyl]-4,5,6,7-tetrahydro-1H-pyrazolo[4,3-c]pyridin-1-yl}-3-[4-(pyrrolidin-1-ylcarbonyl)piperidin-1-yl]propan-2-ol]
45 | CS(=O)(=O)N1CCc2c(c(-c3ccc(C(F)(F)F)c(SCCN4CCCC(CO)C4)c3)nn2CC(O)CN2CCN(c3ccccc3O)CC2)C1 (stereo not drawn) [Example 838, 2-[4-(2-Hydroxy-3-{3-[3-({2-[3-(hydroxymethyl)piperidin-1-yl]ethyl}sulfanyl)-4-(trifluoromethyl)phenyl]-5-(methylsulfonyl)-4,5,6,7-tetrahydro-1H-pyrazolo[4,3-c]pyridin-1-yl}propyl)piperazin-1-yl]phenol]
10 | CS(=O)(=O)N1CCc2c(c(-c3ccc(C(F)(F)F)c(SCC(=O)N4CCOCC4)c3)nn2CC(O)CN2CCN(c3ccccc3F)CC2)C1 (stereo not drawn) [Example 790, 1-[4-(2-Fluorophenyl)piperazin-1-yl]-3-[5-(methylsulfonyl)-3-{3-[(2-morpholin-4-yl-2-oxoethyl)sulfanyl]-4-(trifluoromethyl)phenyl}-4,5,6,7-tetrahydro-1H-pyrazolo[4,3-c]pyridin-1-yl]propan-2-ol]
